Experimental data from patent publication US20160220464A1 (WUHAN OPTICS VALLEY BRIDGEBIOMED INTERNATIONAL CORPORATION, priority 2013, published 2016).

Protein sequences, listed by entry. Tags and fused reporters are not part of them.
UniProt P30411, whole entry: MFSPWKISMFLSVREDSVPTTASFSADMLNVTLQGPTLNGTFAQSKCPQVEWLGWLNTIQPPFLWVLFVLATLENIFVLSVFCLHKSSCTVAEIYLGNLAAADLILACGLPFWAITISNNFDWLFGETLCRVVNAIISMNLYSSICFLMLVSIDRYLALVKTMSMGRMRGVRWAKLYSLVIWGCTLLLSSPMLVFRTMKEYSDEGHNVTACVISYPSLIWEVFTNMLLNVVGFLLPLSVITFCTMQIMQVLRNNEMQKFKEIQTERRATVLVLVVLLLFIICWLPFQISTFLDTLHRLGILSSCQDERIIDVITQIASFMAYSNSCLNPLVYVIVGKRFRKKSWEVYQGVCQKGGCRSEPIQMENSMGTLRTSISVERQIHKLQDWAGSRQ

Target: T1, B2 receptor (Homo sapiens, UniProt P30411)
T1 construct: The cell strains used in the study were human primary vein endothelial cells (HPVEC) and human aortic smooth muscle cells (HASMC); endogenous in cells; host or cells: human primary vein endothelial cells (HPVEC) and human aortic smooth muscle cells (HASMC)
Test: Relative PG secretion with B2 receptor inhibitor HOE-140
Format: cell-based
Conditions: 1 μM HOE-140; agonists under 10 μM
Procedure: The detailed protocol for the elucidation of inhibited PG secretion by B2 receptor inhibitor HOE-140 was shown as follows. Two different cell lines were transferred into T-75 cell culture flask, and then the instructions of PG kit were strictly followed when cells have reached the appropriate density. Day 1. Cells were seeded in 24 well dishes with minimum medium and allowed to adhere overnight. Day 2. Cells were starved in the serum-free conditioned medium. Day 3. Minimum medium were used, and 0.1 nM, 1 nM, 10 nM, 30 nM, 100 nM, 300 nM, 1 μM, 3 μM and 10 μM of three compounds were added to the medium, respectively, and 1 μM of HOE-140 was added at the same time. Cells were incubated at 37° C. for 1 h. The supernatant was collected after incubation for later use. Day 4. 24 well dishes were washed and then dyed for 45-90 min, and then the quantitative analysis was carried out. Therefore OD values (420 nm) of BK B2 receptor agonists were obtained and relative PG amounts were calculated.

## HOE-140 [reference compound]
  block of PG synthesis caused by the three compounds: more than 90%
